This is an account of results in patent US20050287552A1, “Carbohydrate encapsulated nanoparticle based affinity mass spectrometry” (Academia Sinica, Office of Public Affairs (Technology …, priority 2003, published 2005).

Test [1] addresses type 1 pili in E. coli (FimH), ORN178 (Escherichia coli, UniProt P08191). Type of test: binding.
The next test deals with Con A (Canavalia ensiformis, UniProt P02866). Kind of test: SPR competition binding assay for Con A. As to conditions: individual mannose ligand with respect to monovalent αMeMan. The source says: To assess the binding affinity of α-D-methyl-mannopyrannoside (αMeMan) and various carbohydrate-AuNP for Con A, an SPR competition binding assay was employed based on previous reports (See Mann et al., J. Am. Chem. Soc. 1998, 120:10575; and Nieba et al., Anal. Biochem., 1996, 234:155; herein incorporated by reference) with certain modifications. A self-assembled monolayer composed of 20% mannopyranoside ligand and 80% thiobutanol mixture was generated on a J1 biosensor chip (See FIG. 9). In particular, immobilization of ligand to the biosensor chip was preformed in BIAcore 3000 instrument. […]
Next, the binding affinity of Con A for this chip was determined by titration with a series of Con A concentrations to generate multiple SPR curves. […]
Competition assays were then conducted. […] Ki values were determined by fitting the data into the equation: f=[I]/([I]+Ki (1+F/Kd). From the inhibition curves of each carbohydrate-AuNP, its inhibition constant (Ki) is obtained using the equations derived by Attie et al., J. Chem. Educ., 1995, 72:119. These values are shown in Table 4 below. Also, to compare the inhibition potencies of the individual mannose ligand on three different mannose-AuNP, with respect to monovalent αMeMan, the relative inhibition potency (RIP) was calculated (shown in Table 4).

Turning to α-D-methyl-mannopyrannoside [αMeMan], in test [1] (ORN178), the “Mannose concentration required for competing out ~10% of m-AuNP binding to bacterial pili” value is listed as “approximately 100 times of m-AuNP” and the “Mannose concentration required for competing out ~90% of m-AuNP binding to bacterial pili” value is ~2000 times of m-AuNP. In addition, the “effect on the binding of m-AuNP to bacterial pili” value in test [1] (concentrations up to twenty times of m-AuNP concentration) is on record as “no or little effect”. On Con A, the “RIP (relative inhibition potency)” value was 1.0.
